Assay results reported in patent US20220125856A1, “USE OF OVARIAN-DERIVED HYDROGELS FOR RESTORATION OF REPRODUCTIVE FUNCTION AND HEALTH IN WOMEN” (UNIVERSITY OF PITTSBURGH - OF THE COMMONWEALTH SYSTEM OF …, priority 2019, published 2022).

Tested on: ovarian follicles
Assay: Chemotherapy-induced POF model, follicle counts post-chemotherapy
Settings: busulfan compared with cyclophosphamide across dose titration

CS(=O)(=O)OCCCCOS(C)(=O)=O [busulfan]
effect on follicle depletion: enhanced effect on follicle depletion in comparison to cyclophosphamide
